Measured values published in patent US20260382728A1, “MODIFIED PROTEINS AND PROTEIN BINDERS AND DEGRADERS” (published 2026).

Sequences of proteins named here, by UniProt entry; tags and fusion partners are left off.
UniProt P03372, whole entry: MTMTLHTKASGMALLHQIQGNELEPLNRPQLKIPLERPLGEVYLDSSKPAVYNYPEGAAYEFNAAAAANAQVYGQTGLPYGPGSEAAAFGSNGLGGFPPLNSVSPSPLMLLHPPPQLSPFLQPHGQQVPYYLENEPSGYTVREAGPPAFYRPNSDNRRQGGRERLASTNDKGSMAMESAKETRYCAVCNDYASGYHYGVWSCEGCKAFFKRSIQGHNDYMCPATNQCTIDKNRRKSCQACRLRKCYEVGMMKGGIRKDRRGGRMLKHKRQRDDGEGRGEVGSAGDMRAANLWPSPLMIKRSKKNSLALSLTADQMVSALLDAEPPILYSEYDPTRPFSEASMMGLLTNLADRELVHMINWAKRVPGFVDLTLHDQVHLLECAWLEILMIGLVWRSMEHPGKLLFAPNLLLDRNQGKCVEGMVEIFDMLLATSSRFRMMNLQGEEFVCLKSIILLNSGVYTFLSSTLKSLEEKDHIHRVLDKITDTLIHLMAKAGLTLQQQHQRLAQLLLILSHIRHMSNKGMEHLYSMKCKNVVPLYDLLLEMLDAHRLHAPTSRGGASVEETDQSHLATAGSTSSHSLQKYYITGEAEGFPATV
UniProt P11802, whole entry: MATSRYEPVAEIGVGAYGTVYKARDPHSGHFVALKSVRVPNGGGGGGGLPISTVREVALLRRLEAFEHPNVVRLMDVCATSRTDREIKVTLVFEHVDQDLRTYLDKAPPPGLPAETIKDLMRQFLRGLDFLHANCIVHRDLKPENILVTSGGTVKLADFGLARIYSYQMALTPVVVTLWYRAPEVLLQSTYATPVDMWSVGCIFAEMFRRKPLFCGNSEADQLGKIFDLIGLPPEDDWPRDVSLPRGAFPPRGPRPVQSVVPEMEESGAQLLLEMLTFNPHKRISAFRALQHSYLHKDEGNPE

How the values were obtained:
BRD4 = BRD4 (Homo sapiens, UniProt O60885); assay: BRD4 degradation in MV4;11 cells (immunoblotting)
MV4;11 cells = assay: Cell viability inhibition of MV4;11 cells (CellTiter-Glo); conditions: read-out: Cell viability inhibition IC50, 3 days, 3-fold serial dilution
ERα = ERα (Homo sapiens, UniProt P03372); assay: ERα degradation in T47D cells; conditions: serum starved 2 hours, 24 hours, serum-free
cyclin D1 = assay: Cyclin D1 degradation in T47D cells (immunoblotting); conditions: 16 hours
CDK4 = CDK4 (Homo sapiens, UniProt P11802); assay: CDK4 degradation in T47D cells (immunoblotting); conditions: 16 hours

| % BRD4 Degradation (at 10 μM) (BRD4) | IC50 (MV4;11 cells) | % CDK4 Degradation (at 1 μM) (CDK4) | Structure (SMILES) | % Cyclin D1 Degradation (at 1 μM) (cyclin D1) | other results |
| --- | --- | --- | --- | --- | --- |
| B (40% ≤ B < 70%) | 100 to 300 nM | – | Cc1sc2c(c1C)C(c1ccc(Cl)cc1)=N[C@@H](CC(=O)NCCOCCOCCOCCOCCN1CCN(c3cc(N[C@@H]4CCCN(c5cccc(F)c5)C4)ncn3)CC1)c1nnc(C)n1-2 | – | – |
| A (A: ≥ 70%) | < 100 nM | – | Cc1sc2c(c1C)C(c1ccc(Cl)cc1)=N[C@@H](CC(=O)NCCOCCOCCN1CCN(c3cc(N[C@@H]4CCCN(c5cccc(F)c5)C4)ncn3)CC1)c1nnc(C)n1-2 | – | – |
| – | – | C (20% ≤ C < 40%) | C[C@]1(O)CCC[C@@H]1n1c(=O)c(C(F)F)cc2cnc(NC3CCN(C(=O)CCOCCN4CCN(c5cc(N[C@@H]6CCCN(c7cccc(F)c7)C6)ncn5)CC4)CC3)nc21 | D (D < 20%) | – |
| – | – | A (A: ≥ 70%) | C[C@]1(O)CCC[C@@H]1n1c(=O)c(C(F)F)cc2cnc(NC3CCN(C(=O)CCCN4CCN(c5cc(N[C@@H]6CCCN(c7cccc(F)c7)C6)ncn5)CC4)CC3)nc21 | A (A: ≥ 70%) | – |
| D (D < 20%) | 100 to 300 nM | – | Cc1sc2c(c1C)C(c1ccc(Cl)cc1)=N[C@@H](CC(=O)NCCNC(=O)CCCN1CCN(c3cc(N[C@@H]4CCCN(c5cccc(F)c5)C4)ncn3)CC1)c1nnc(C)n1-2 | – | – |

Second part, the compound before the results:

| Structure (SMILES) | % BRD4 Degradation (at 10 μM) (BRD4) | IC50 (MV4;11 cells) | % CDK4 Degradation (at 1 μM) (CDK4) | % Cyclin D1 Degradation (at 1 μM) (cyclin D1) | other results |
| --- | --- | --- | --- | --- | --- |
| O=C(NCCCCCOc1ccc([C@@H]2c3ccc(O)cc3CC[C@@H]2c2ccccc2)cc1)c1ccnc(N2CCC3(CCN(c4ccccc4)C3)C2)c1 (stereo partly drawn) | – | – | – | – | % ERα Degradation (at 1 μM) (ERα): D (D < 20%) |
| O=C(NCCCOc1ccc([C@@H]2c3ccc(O)cc3CC[C@@H]2c2ccccc2)cc1)c1ccnc(N2CCC3(CCN(c4ccccc4)C3)C2)c1 (stereo partly drawn) | – | – | – | – | % ERα Degradation (at 1 μM) (ERα): C (20% ≤ C < 40%) |
| Cc1sc2c(c1C)C(c1ccc(Cl)cc1)=N[C@@H](CC(=O)NCCNC(=O)CCCCCN1CCN(c3cc(N[C@@H]4CCCN(c5cccc(F)c5)C4)ncn3)CC1)c1nnc(C)n1-2 | C (20% ≤ C < 40%) | 100 to 300 nM | – | – | – |
| O=C(NCCOCCOc1ccc([C@@H]2c3ccc(O)cc3CC[C@@H]2c2ccccc2)cc1)c1ccnc(N2CCC3(CCN(c4ccccc4)C3)C2)c1 (stereo partly drawn) | – | – | – | – | % ERα Degradation (at 1 μM) (ERα): D (D < 20%) |
| Cc1sc2c(c1C)C(c1ccc(Cl)cc1)=N[C@@H](CC(=O)NCCN1CCN(c3cc(N[C@@H]4CCCN(c5cccc(F)c5)C4)ncn3)CC1)c1nnc(C)n1-2 | A (A: ≥ 70%) | < 100 nM | – | – | – |
| C[C@]1(O)CCC[C@@H]1n1c(=O)c(C(F)F)cc2cnc(NC3CCN(C(=O)CN4CCN(c5cc(N[C@@H]6CCCN(c7cccc(F)c7)C6)ncn5)CC4)CC3)nc21 | – | – | A (A: ≥ 70%) | A (A: ≥ 70%) | – |
| Cc1sc2c(c1C)C(c1ccc(Cl)cc1)=N[C@@H](CC(=O)NCCNC(=O)CCCCCCCN1CCN(c3cc(N[C@@H]4CCCN(c5cccc(F)c5)C4)ncn3)CC1)c1nnc(C)n1-2 | D (D < 20%) | 100 to 300 nM | – | – | – |
| Cc1sc2c(c1C)C(c1ccc(Cl)cc1)=N[C@@H](CC(=O)NCCCCCCN1CCN(c3cc(N[C@@H]4CCCN(c5cccc(F)c5)C4)ncn3)CC1)c1nnc(C)n1-2 | D (D < 20%) | 100 to 300 nM | – | – | – |
| C[C@]1(O)CCC[C@@H]1n1c(=O)c(C(F)F)cc2cnc(NC3CCN(C(=O)CCOCCOCCOCCOCCN4CCN(c5cc(N[C@@H]6CCCN(c7cccc(F)c7)C6)ncn5)CC4)CC3)nc21 | – | – | D (D < 20%) | D (D < 20%) | – |
| O=C(NCCOCCOCCOCCOCCOc1ccc([C@@H]2c3ccc(O)cc3CC[C@@H]2c2ccccc2)cc1)c1ccnc(N2CCC3(CCN(c4ccccc4)C3)C2)c1 (stereo partly drawn) | – | – | – | – | % ERα Degradation (at 1 μM) (ERα): A (A: ≥ 70%) |
| C[C@]1(O)CCC[C@@H]1n1c(=O)c(C(F)F)cc2cnc(NC3CCN(C(=O)CCOCCOCCN4CCN(c5cc(N[C@@H]6CCCN(c7cccc(F)c7)C6)ncn5)CC4)CC3)nc21 | – | – | C (20% ≤ C < 40%) | C (20% ≤ C < 40%) | – |
| O=C(NCCCCCCOc1ccc([C@@H]2c3ccc(O)cc3CC[C@@H]2c2ccccc2)cc1)c1ccnc(N2CCC3(CCN(c4ccccc4)C3)C2)c1 (stereo partly drawn) | – | – | – | – | % ERα Degradation (at 1 μM) (ERα): D (D < 20%) |
| Cc1sc2c(c1C)C(c1ccc(Cl)cc1)=N[C@@H](CC(=O)NCCNC(=O)CCOCCOCCOCCOCCN1CCN(c3cc(N[C@@H]4CCCN(c5cccc(F)c5)C4)ncn3)CC1)c1nnc(C)n1-2 | D (D < 20%) | 300 to 1000 nM | – | – | – |
| C[C@]1(O)CCC[C@@H]1n1c(=O)c(C(F)F)cc2cnc(NC3CCN(C(=O)CCOCCOCCOCCN4CCN(c5cc(N[C@@H]6CCCN(c7cccc(F)c7)C6)ncn5)CC4)CC3)nc21 | – | – | D (D < 20%) | D (D < 20%) | – |
